The values that follow come from patent US12685773B2 (priority 2020, dated 2026).

Read-outs that look alike come from different tables or passages of the source.

In this assay the test system is relapsed or refractory CD30+ Hodgkin Lymphoma. Conditions: classical HL patients with measurable disease at time of treatment.

On to `Cn1c(CCCC(=O)O)nc2cc(N(CCCl)CCCl)ccc21` [Benda], for which the “RR: CR, %” value is “(0%)”; the “RR: PD, %” value is listed as “(80%)”; the “RR: PR, %” value is listed as “(0%)”; the “RR: SD, %” value is reported as “(20%)”. Also, the “ORR (CR + PR): %” value (Lugano criteria, 6-8 weeks after infusion) is recorded as “(0%)”. The “ORR (CR + PR): n” value (Lugano criteria, 6-8 weeks after infusion, listed as Bendamustine) worked out at 0. The “ORR (CR + PR): n” value (Lugano criteria, 6-8 weeks after infusion, listed as bendamustine alone) was “None of the 5 patients with active disease showed objective clinical responses”.
